Target: Endothelin-1 receptor (Rattus norvegicus, UniProt P26684)
Assay: Binding affinity for endothelin A receptor by measuring its ability to displace [125I]ET1 from prolactin secreting rat pituitary cells(MMQ)
Type: cell-based, Pituitary gland cell

By UniProt entry, the sequences of proteins in these tests, tags left out.
UniProt P26684, whole entry: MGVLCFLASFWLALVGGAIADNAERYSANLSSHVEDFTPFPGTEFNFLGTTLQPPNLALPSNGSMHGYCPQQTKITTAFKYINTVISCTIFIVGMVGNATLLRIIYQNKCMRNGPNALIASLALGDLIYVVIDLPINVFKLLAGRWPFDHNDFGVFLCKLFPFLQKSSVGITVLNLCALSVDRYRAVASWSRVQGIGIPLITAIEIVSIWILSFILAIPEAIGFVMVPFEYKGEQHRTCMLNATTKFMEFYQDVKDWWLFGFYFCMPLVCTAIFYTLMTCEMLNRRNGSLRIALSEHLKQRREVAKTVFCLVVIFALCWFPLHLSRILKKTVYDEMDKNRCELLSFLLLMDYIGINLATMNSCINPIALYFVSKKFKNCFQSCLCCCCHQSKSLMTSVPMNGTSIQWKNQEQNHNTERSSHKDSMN

CCCCN(CCCC)C(=O)CN1C[C@H](c2ccc3c(c2)OCO3)[C@@H](C(=O)O)[C@@H]1C(C)(C)CCCC gave an IC50 of 1300 nM.

Source: ChEMBL document CHEMBL1131628 (J Med Chem, 1998)
